Test results as given in ChEMBL document CHEMBL5113421, “Development of novel conformationally restricted selective Clk1/4 inhibitors through creating an intramolecular hydrogen bond involving an imide linker” (Eur J Med Chem, 2022).
pIC50: −log10 of the molar value.

Target: Dual specificity tyrosine-phosphorylation-regulated kinase 1A (Mus musculus, UniProt Q61214)
Assay: Inhibition of mouse glutathione S-transferase-tagged Dyrk1A expressed in Escherichia coli DH5alpha using NH2-RSPSYGRSRSRSRSRSRSRSRSNSRSRSY-OH peptide as substrate in presence of [gamma 32P-ATP] and ATP by liquid scintillation counting method

pIC50: 7.92
Structure (SMILES): CCN1/C(=C/C(C)=O)Sc2ccc(OC)cc21
